Laboratory results: paper PMC11079024, “Identification of a family of species-selective complex I inhibitors as potential anthelmintics” (Nature Communications, 2024)

What was measured:
[1] = test system: L1 wild-type C. elegans (N2); settings: normoxia
[2] = test system: L1 wild-type C. elegans (N2); test: microbe, parasite or virus in culture; settings: Caenorhabditis elegans, 144 h, read-out: C. elegans L1 development and viability (6-day growth)

SMILES | concentration up to which there is very little effect on C. elegans normoxic growth [1] | viability at 0.4 µM [2] | viability at 6.3 µM [2] | viability at 25 µM [2] | viability at […] [2]
CC(C)Cc1ccc(C(C)c2nc3ccccc3n2C)cc1 (centres unmarked) [NPD8790] | greater than 500 µM |  |  |  | 
Fc1ccc(C(c2ccc(F)cc2)N2CCN(C/C=C/c3ccccc3)CC2)cc1 [Flunarizine] |  | 98.1% | 92.6% | 96.2% | 95.3%
